Some of the results follow.
System: A. baumannii ATCC 17978
Assay: relative growth (fraction of control); higher = less inhibition
Details: 50 µM

Row | SMILES | relative growth
1 | CO[C@@H]1CN(C)C(=O)c2ccc(NC(=O)C3CC3)cc2OC[C@@H](C)N(C(=O)Cc2ccccn2)C[C@@H]1C | 1.09
2 | CC1(C)CC(/C=C/c2ccccc2)=Nc2ccccc2N1 | 0.894
3 | CC(C)(C(=O)c1cccnc1)c1cccnc1 | 0.923
4 | C[C@H]1O[C@@H](O[C@H]2[C@@H](O)C[C@H](O[C@H]3[C@@H](O)C[C@H](O[C@H]4CC[C@]5(C)C6C[C@@H](O)[C@]7(C)[C@@H](C8=CC(=O)OC8)CC[C@]7(O)C6CC[C@@H]5C4)O[C@@H]3C)O[C@@H]2C)C[C@H](O)[C@@H]1O (stereo partly specified) | 1.07
5 | O=C(C[C@H]1C=C[C@@H](NC(=O)CN2CCOCC2)[C@H](CO)O1)NCCc1ccccc1 | 0.953
6 | C=CC[C@@H](CC(=O)N[C@H](CO)Cc1ccccc1)C(=O)N[C@@H](C)COC(=O)[C@H](CC=C)CC(=O)OC(C)(C)C | 0.839
7 | O=C(C[C@H]1CC[C@H](NC(=O)c2cnccn2)[C@H](CO)O1)NCc1ccccc1F | 0.941
8 | Cc1ccc(S(=O)(=O)NC2=NCN(CCN3CCOCC3)CN2)cc1 | 0.971
9 | O=CNC(=O)c1ccccc1C(=O)O | 1
10 | CO[C@H](CN(C)S(=O)(=O)c1ccc(F)cc1)[C@@H](C)CN([C@@H](C)CO)S(=O)(=O)c1cccc(Cl)c1 | 0.674
11 | O=C(CN1CCOCC1)NCC[C@H]1CC[C@H](NC(=O)Nc2ccccc2)[C@H](CO)O1 | 0.93
12 | CCN(CC)CCOCCOC(=O)C1(c2ccccc2)CCCC1.O=C(O)CC(O)(CC(=O)O)C(=O)O | 1.06
13 | C=CC[C@@H](CC(=O)N(CCO)Cc1ccccc1)C(=O)N[C@@H](COC(=O)[C@H](CC=C)CC(=O)OC(C)(C)C)Cc1c[nH]c2ccccc12 | 1.3
14 | CC(C)/N=c1\cc2n(-c3ccc(Cl)cc3)c3ccccc3nc-2cc1Nc1ccc(Cl)cc1 | 1.05
15 | CC(=O)NCCCS(=O)(=O)[O-].CC(=O)NCCCS(=O)(=O)[O-].[Ca+2] | 1.13
16 | COc1ccc(Cc2c(O)[nH]c(N)nc2=O)cc1 | 1.02
17 | CN(C)C(=N)NC(=N)N.Cl | 1.06
18 | COC(=O)C[C@@H]1CC[C@@H]2[C@H](COC[C@@H](O)CN2S(=O)(=O)c2cn(C)cn2)O1 | 1.12
19 | CN1CCc2nc(C(=O)NC3C[C@@H](C(=O)N(C)C)CC[C@@H]3NC(=O)C(=O)Nc3ccc(Cl)cn3)sc2C1.Cc1ccc(S(=O)(=O)O)cc1.O (stereo partly specified) | 1.15
20 | COc1cccc(NC(=O)N2C[C@@H](O)COC[C@@H]3O[C@H](CC(=O)NCc4ccccc4F)CC[C@H]32)c1 | 0.976
21 | COCOc1ccc2cc(Br)ccc2c1-c1c(OCOC)ccc2cc(Br)ccc12 | 3.49
22 | CC(C)CC#Cc1ccc2c(c1)O[C@@H](CN(C)C(=O)c1ccncc1)[C@H](C)CN([C@@H](C)CO)S2(=O)=O | 0.968

Row | SMILES | relative growth
23 | CCOC(=O)C(C)(C)Oc1ccc(Cl)cc1 | 1.26
24 | O=C(C[C@@H]1CC[C@@H]2[C@H](COC[C@H](O)CN2C(=O)Nc2cccc(Cl)c2)O1)NCCCN1CCOCC1 | 0.772
25 | Cl.N[C@H](Cc1ccccc1)C(=O)O | 0.938
26 | O=C(C[C@@H]1CC[C@H]2[C@@H](COC[C@@H](O)CN2C(=O)c2ccccc2)O1)NCCCN1CCOCC1 | 0.875
27 | O=C(N[C@@H]1C=C[C@@H](CC(=O)N2CCOCC2)O[C@H]1CO)c1ccc2c(c1)OCO2 | 1.29
28 | CCC(Cc1c(I)cc(I)c(N)c1I)C(=O)O (stereo unspecified) | 0.945
29 | Cc1ccc(S[C@]2(C(=O)NC(C)C)CC(=O)N(Cc3ccccc3Cl)[C@@H]2c2ccc(CO)cc2)cc1 | 0.877
30 | CN(C)[C@H]1CS(=O)(=O)C[C@@H]1N(C)C | 0.873
31 | C[C@]12CC[C@@H]3c4ccc(O)cc4CC[C@H]3[C@@H]1CC[C@@H]2OC(=O)CCC1CCCC1 | 1.34
32 | CCCC(=O)O | 1.1
33 | COc1ccc(S(=O)(=O)N[C@@H]2CC[C@@H](CC(=O)N3CCN(c4ccccc4)CC3)O[C@H]2CO)cc1 | 1.07
34 | O=C1C=C2CC3(O)COc4c(ccc(O)c4O)C3=C2C=C1O (stereo unspecified) | 1.06
35 | O=S(=O)(NCC[C@H]1CC[C@@H](NS(=O)(=O)c2cccc(Cl)c2)[C@@H](CO)O1)c1cccc(F)c1 | 0.969
36 | Nc1nc(=O)c2c(CCc3ccc(C(=O)N[C@@H](CCC(=O)[O-])C(=O)[O-])cc3)c[nH]c2[nH]1.[Na+].[Na+] | 1.01
37 | CC(=O)OCC(=O)[C@@]1(O)[C@H](OC(C)=O)CC2C3CCC4=CC(=O)C=C[C@]4(C)[C@@]3(F)[C@@H](O)C[C@@]21C (stereo partly specified) | 1.09
38 | O=c1nc(N2CCc3ccccc3C2)cn[nH]1 | 1.08
39 | C[C@@H]1CN([C@H](C)CO)S(=O)(=O)c2ccc(-c3cccc(C#N)c3)cc2O[C@@H]1CN(C)C(=O)c1cccnc1 | 0.966
40 | O=C1c2ccccc2[C@@]2(Cc3ccccc3N(Cc3ccccc3)C2=O)[C@H](c2ccc(CO)cc2)N1Cc1ccccc1C(F)(F)F | 0.919
41 | Nc1nc(N)nc(-c2cc(Cl)ccc2Cl)n1.O=C(O)/C=C\C(=O)O | 0.839
42 | CO[C@H]1CN(C)C(=O)c2ccc(NS(C)(=O)=O)cc2OC[C@@H](C)N(C(=O)C2CCOCC2)C[C@H]1C | 1.07
43 | Cc1ccc(S(=O)(=O)C[C@H]2O[C@@H](n3cc(I)c(=O)[nH]c3=O)C[C@@H]2O)cc1 | 1.04
44 | N#CC(c1ccc(Cl)cc1)c1c(Cl)cc(-n2ncc(=O)[nH]c2=O)cc1Cl (stereo unspecified) | 1.09

Row | SMILES | relative growth
45 | COc1ccc(NC(=O)N2C[C@H](O)COC[C@H]3O[C@@H](CC(=O)NCc4ccccc4OC)CC[C@@H]32)cc1 | 0.953
46 | CNC(=O)C[C@H]1CC[C@@H]2[C@H](COC[C@@H](O)CN2C(=O)c2ccc3c(c2)OCO3)O1 | 1.03
47 | CC1=CC(=O)[N-]S(=O)(=O)O1.[K+] | 0.873
48 | Cc1cc(C(=O)NN)n(C(C)(C)C)n1 | 0.853
49 | Cl.O=C1NCC2(CCN(CCc3ccccc3)CC2)O1 | 1.14
50 | CC(C)(C)C(=O)OCOP(=O)(COCCn1cnc2c(N)ncnc21)OCOC(=O)C(C)(C)C | 1.2
51 | C[C@H]1CN([C@@H](C)CO)S(=O)(=O)c2ccc(C#Cc3ccccc3)cc2O[C@@H]1CN(C)S(=O)(=O)c1ccccc1F | 0.881
52 | CO/N=C(/C(=O)N[C@@H]1C(=O)N2C(C(=O)[O-])=C(CSc3nc(=O)c([O-])nn3C)CS[C@H]12)c1csc(N)n1.O.O.O.[Na+].[Na+] | 0.769
53 | COc1ccccc1N1CCN(CC(O)COc2cccc3ccccc23)CC1 (stereo unspecified) | 0.865
54 | C/C(Cc1ncn(-c2cc(C)on2)n1)=N\O | 0.925
55 | C[C@H](O)C#Cc1ccc2c(c1)O[C@@H](CN(C)C(=O)CN(C)C)[C@@H](C)CN([C@H](C)CO)S2(=O)=O | 1.01
56 | CCNC(=S)NCC1CC1 | 1.1
57 | NCCNC1=NS(=O)(=O)c2ccccc21 | 1.03
58 | CCCN(CCC)C(=O)C(CCC(=O)O)NC(=O)c1ccccc1 (stereo unspecified) | 1.18
59 | NNCCc1ccccc1.O=S(=O)(O)O | 0.223
60 | NNC(=O)c1ccc2c(=O)[nH][nH]c(=O)c2c1 | 1.05
61 | CN(CC(=O)O)S(=O)(=O)c1ccc(F)cc1 | 0.881
62 | CCN(CC)CCOc1ccc(/C(=C(\Cl)c2ccccc2)c2ccccc2)cc1.O=C(O)CC(O)(CC(=O)O)C(=O)O | 0.688
63 | CCCCC[C@H](CC(=O)O)C(=O)O | 1.17
64 | C[C@H](CO)N1C[C@H](C)[C@H](CN(C)C(=O)Cc2cccnc2)Oc2cc(C#CC3(O)CCCC3)ccc2S1(=O)=O | 0.939
65 | CN(C)Cc1cn(CC[C@H]2CC[C@H](NS(=O)(=O)c3ccccc3)[C@@H](CO)O2)nn1 | 1.21
66 | C[C@H]1c2cccc(O)c2C(=O)C2=C(O)[C@]3(O)C(=O)C(C(N)=O)=C(O)[C@@H](N(C)C)[C@@H]3[C@@H](O)[C@@H]21.Cl | 0.177

Row | SMILES | relative growth
67 | COCC#Cc1ccc2c(c1)O[C@@H](CN(C)C(=O)COC)[C@@H](C)CN([C@@H](C)CO)S2(=O)=O | 0.924
68 | CC(C)C(=O)Oc1ccc(CO)cc1[C@H](CCN(C(C)C)C(C)C)c1ccccc1.O=C(O)/C=C/C(=O)O | 1.07
69 | COc1cccc(NC(=O)N[C@@H]2CC[C@@H](CC(=O)N3CCOCC3)O[C@@H]2CO)c1 | 1.09
70 | CC(C)[C@@H](N)c1nc2ccccc2[nH]1 | 0.95
71 | CO[C@@H]1CN(C)C(=O)c2cc(NC(=O)C3CCOCC3)ccc2OC[C@H](C)N(Cc2cccnc2)C[C@H]1C | 0.992
72 | CC(C)(Sc1cc(C(C)(C)C)c(O)c(C(C)(C)C)c1)Sc1cc(C(C)(C)C)c(O)c(C(C)(C)C)c1 | 1.39
73 | COc1cc2c(cc1OC)CC(=O)N(CCCN(C)C[C@H]1Cc3cc(OC)c(OC)cc31)CC2.Cl | 1.06
74 | CC(=O)N[C@H]1C(=O)SC1(C)C | 0.975
75 | NCCN1CCO[C@@H](CC(=O)Nc2cc(Cl)cc(Cl)c2)C1=O | 1.01
76 | NNC(=O)CCc1ccccc1 | 0.929
77 | N/C(=N/O)c1cnc2n(c1=O)CCS2 | 1.02
78 | CN(C)CCCNC(=O)[C@@H]1c2ccccc2C(=O)N(Cc2cc(C(F)(F)F)cc(C(F)(F)F)c2)[C@H]1c1ccc(CO)cc1 | 0.963
79 | Cc1cc(C)c2nnc(SCC(=O)O)n2n1 | 0.94
80 | C[C@@H]1CN([C@@H](C)CO)S(=O)(=O)c2ccc(C#Cc3cccc(F)c3)cc2O[C@@H]1CN(C)S(=O)(=O)c1ccccc1F | 1.28
81 | CS(=O)(=O)CCNCc1ccc(-c2ccc3ncnc(Nc4ccc(OCc5cccc(F)c5)c(Cl)c4)c3c2)o1 | 1.14
82 | C[C@@H]1CN([C@H](C)CO)S(=O)(=O)c2ccc(C#Cc3cccnc3)cc2O[C@H]1CN(C)C(=O)CN(C)C | 0.936
83 | NCc1cn2cc(Cl)ccc2n1 | 1.11
84 | CCCCC(=O)C1CCCC=C1C(=O)O (stereo unspecified) | 0.881
85 | CC1(C)S[C@@H]2[C@H](NC(=O)Cc3ccccc3)C(=O)N2[C@H]1C(=O)[O-].[K+] | 0.447
86 | C[C@H]1CN([C@@H](C)CO)S(=O)(=O)c2ccc(C#Cc3ccccc3)cc2O[C@@H]1CN(C)C(=O)c1ccccn1 | 0.892

From published antibiotic growth screens (doi:10.1038/s41589-023-01349-8)
